In patent US8017321B2, “Gefitinib sensitivity-related gene expression and products and methods related thereto” (The Regents of the University of Colorado, A Body Corporate, priority 2005, dated 2011):

Tested on: A549 NSCLC xenografts
Assay: Athymic nude mice bearing human NSCLC xenografts (FIG. 5)
Assay type: in vivo
Protocol: FIG. 5 is a line graph showing the effects of gefitinib on A549 NSCLC xenografts.
Based on the in vitro experiments, athymic nude mice bearing human NSCLC xenografts were treated with EGFR inhibitors ZD1839 or C225.

C225: EGFR inhibitor used to treat nude mice bearing human NSCLC xenografts
tumor growth of NSCLC xenografts after treatment: Growth delay was evident
